ChEMBL document CHEMBL5108017

Tested on: Mus musculus
Experiment: Antinociceptive activity in acute pain model of mouse when administered orally measured by paw pressure test
Settings: route po

Work on `CCN1CC2(CCN(CCc3cc(F)ccc3F)CC2)O[C@H](C)C1=O` yielded an ED50 of 14 mg/kg.
